Reference: ChEMBL document CHEMBL1135604, “Geometry-affinity relationships of the selective serotonin receptor ligand 9-(aminomethyl)-9,10-dihydroanthracene” (J Med Chem, 2002)

Target: 5-hydroxytryptamine receptor 2A (Rattus norvegicus) (UniProt P14842)
Experiment: Binding affinity was performed using [3H]ketanserin as the radioligand and stably transfected NIH3T3 cells expressing the 5-hydroxytryptamine 2A receptor (GF-62 cells).

SMILES	Ki [µM]
NCC1c2ccccc2-c2ccccc21	4.49
NCC1c2ccccc2C=Cc2ccccc21	4.13
